Experiment: Pharmacokinetics/biodistribution of [14C]-tagged doxorubicin and vectorized doxorubicin in plasma and organs after intravenous injection in mice;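 also: radioactivity counted in plasma and organs of mice killed 1 to 60 min post-dose, converted to percentage of product per organ, five animals per time point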
Conditions: i.v., 1 mg/kg doxorubicin equivalent; for Percentage of product in Brain after intravenous injection / Percentage of product in Heart after intravenous injection / Percentage of product in Kidneys after intravenous injection / Percentage of product in Liver after intravenous injection / Percentage of product in Lungs after intravenous injection / Percentage of product in Plasma after intravenous injection: 14C radioactivity; for biodistribution in the lungs of doxorubicin coupled with the peptide vector, compared with free doxorubicin: result in words

| Substance | Percentage of product in Brain after intravenous injection (time 1 minute) [%] | Percentage of product in Heart after intravenous injection (time 1 minute) [%] | Percentage of product in Kidneys after intravenous injection (time 1 minute) [%] | Percentage of product in Liver after intravenous injection (time 1 minute) [%] | Percentage of product in Lungs after intravenous injection (time 1 minute) [%] | Percentage of product in Plasma after intravenous injection (time 1 minute) [%] | Percentage of product in Brain after intravenous injection (time 5 minutes) [%] | Percentage of product in Heart after intravenous injection (time 5 minutes) [%] | Percentage of product in Kidneys after intravenous injection (time 5 minutes) [%] | Percentage of product in Liver after intravenous injection (time 5 minutes) [%] | Percentage of product in Lungs after intravenous injection (time 5 minutes) [%] | Percentage of product in Plasma after intravenous injection (time 5 minutes) [%] | Percentage of product in Brain after intravenous injection (time 15 minutes) [%] | Percentage of product in Heart after intravenous injection (time 15 minutes) [%] | Percentage of product in Kidneys after intravenous injection (time 15 minutes) [%] | Percentage of product in Liver after intravenous injection (time 15 minutes) [%] | Percentage of product in Lungs after intravenous injection (time 15 minutes) [%] | Percentage of product in Plasma after intravenous injection (time 15 minutes) [%] | Percentage of product in Brain after intravenous injection (time 30 minutes) [%] | Percentage of product in Heart after intravenous injection (time 30 minutes) [%] | also measured |
| --- | --- | --- | --- | --- | --- | --- | --- | --- | --- | --- | --- | --- | --- | --- | --- | --- | --- | --- | --- | --- | --- |
| RGGRLSYS-Cit-Cit-Cit-FSTSTGR-succ-dox [compound 3] | 0.20 | 0.50 | 2.6 | 10.9 | 60.0 | 1.60 | 0.08 | 0.24 | 2.2 | 16.1 | 68.5 | 0.80 | 0.07 | 0.15 | 2.1 | 15.7 | 46.6 | 0.46 | 0.06 | 0.15 | Percentage of product in Kidneys after intravenous injection (time 30 minutes): 1.8%; Percentage of product in Liver after intravenous injection (time 30 minutes): 21.8%; Percentage of product in Lungs after intravenous injection (time 30 minutes): 50.6%; Percentage of product in Plasma after intravenous injection (time 30 minutes): 0.35%; Percentage of product in Brain after intravenous injection (time 60 minutes): 0.07%; Percentage of product in Heart after intravenous injection (time 60 minutes): 0.11%; Percentage of product in Kidneys after intravenous injection (time 60 minutes): 1.8%; Percentage of product in Liver after intravenous injection (time 60 minutes): 23.9%; Percentage of product in Lungs after intravenous injection (time 60 minutes): 38.2%; Percentage of product in Plasma after intravenous injection (time 60 minutes): 0.18%; biodistribution in the lungs of doxorubicin coupled with the peptide vector, compared with free doxorubicin: significantly improves |
| AWSFRVSYRGISYRRSR-succ-dox [compound 2] | 0.07 | 0.47 | 2.3 | 18.4 | 33.3 | 1.07 | 0.05 | 0.41 | 2.0 | 25.7 | 46.9 | 0.7 | 0.04 | 0.33 | 1.3 | 35.7 | 16.0 | 0.32 | 0.04 | 0.26 | Percentage of product in Kidneys after intravenous injection (time 30 minutes): 1.0%; Percentage of product in Liver after intravenous injection (time 30 minutes): 35.1%; Percentage of product in Lungs after intravenous injection (time 30 minutes): 11.0%; Percentage of product in Plasma after intravenous injection (time 30 minutes): 0.19%; Percentage of product in Brain after intravenous injection (time 60 minutes): 0.04%; Percentage of product in Heart after intravenous injection (time 60 minutes): 0.35%; Percentage of product in Kidneys after intravenous injection (time 60 minutes): 1.1%; Percentage of product in Liver after intravenous injection (time 60 minutes): 37.2%; Percentage of product in Lungs after intravenous injection (time 60 minutes): 16.4%; Percentage of product in Plasma after intravenous injection (time 60 minutes): 0.12%; biodistribution in the lungs of doxorubicin coupled with the peptide vector, compared with free doxorubicin: significantly improves |

— US20050159360A1, “Compositions for the transport of therapeutic molecules into the lungs and use thereof for the treatment of lung cancers and pulmonary diseases” (SYNT:EM, a corporation of France, priority 2002, published 2005)
